Measurements published in PubChem BioAssay AID488927 (Johns Hopkins Ion Channel Center, 2010).
Only a part is listed here, and it is no random draw. Activity calls are given as the source filed them.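 The calls were made as follows: active = membrane potential signal moved up or down beyond 5 SD of buffer control wells, in both duplicate plates, actives on both sides; inactive = the rest.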

test system: Transient receptor potential cation channel subfamily C member 4 (mouse); experiment: off-target membrane potential effects via mouse TRPC4 – cell-based, HEK293 TRPC4/mu-opioid, membrane potential dye, selectivity assay for TRPC6 modulator project, confirmation (AID 488927); details: membrane potential fluorescence, at 10 µM

Structure (SMILES) | percent of control
O=C(OC1CN2CCC1CC2)C1c2ccccc2C=Cc2ccccc21 (configuration not stated) | active: 19.5%
CN1CCN(CCOC(=O)C(O)(c2ccccc2)c2ccccc2)CC1 | inactive
